Here are results for two compounds from US20160158215A1, “TRANSORAL DOSAGE FORMS […] NALOXONE” (published 2016).

SMILES strings stand for the structures. Only a part of the results on these compounds is given; other tests are left out.

Data set [1] can be described thus: Absorption rate constant (Ka) estimated from in vitro flux data by Wagner-Nelson method. The note with it: log slope of cumulative % unabsorbed vs. time, in vitro data of Example 2 over 4 hour period.
A short description of data set [2]: Saturation concentration of stock solutions in pH 5 citric acid buffer. The note with it: equilibrated overnight @ 37° C.
For data set [3] the following is noted: free base; cited from earlier work.
The conditions of data set [4]: used in the predictive modelling; cited from earlier work.
For another data set, the system named is pig buccal mucosa. Put plainly: In vitro permeation (buccal flux) through pig buccal mucosal tissue, modified Franz cell.

With `CCC(=O)N(c1ccccc1)C1CCN(CCc2ccccc2)CC1`, in data set [1], the “Ka (absorption rate constant) estimated from in vitro flux data” value was 0.553 h⁻¹. Further, the “solution concentration of drug estimated to be at saturation” value in data set [2] is 17.35 mg/mL.
For `CCC(=O)N(c1ccccc1)C1(COC)CCN(CCc2cccs2)CC1`, in data set [3], the “solubility in aqueous fluids” value is “very low solubility”. The “Alpha (disposition parameter)” value in data set [4] was 1.73 h⁻¹. Besides, the “Beta (disposition parameter)” value in data set [4] is 0.1447 h⁻¹. In addition, the “K21 (disposition parameter)” value in data set [4] was 0.2414 h⁻¹. The “V1 (disposition parameter)” value in data set [4] is given as 144,586.1 milliliters. In data set [1], the “Ka (absorption rate constant) estimated from in vitro flux data” value was 0.555 h⁻¹. The “Mean (±SD) Cumulative Amount Permeated through pig buccal mucosa” value with pig buccal mucosa (Example 2, donor pH 5.0, 37° C., 0.5 h) was determined as 0.0 ± 0.0 ug/cm^2; in the data set with pig buccal mucosa (Example 2, donor pH 5.0, 37° C., 1 h), 0.0 ± 0.0 ug/cm^2; in the data set with pig buccal mucosa (Example 2, donor pH 5.0, 37° C., 1.5 h), 0.5 ± 0.6 ug/cm^2; in the data set with pig buccal mucosa (Example 2, donor pH 5.0, 37° C., 2 h), 1.6 ± 1.3 ug/cm^2; in the data set on pig buccal mucosa (Example 2, donor pH 5.0, 37° C., 2.5 h), 3.7 ± 2.6 ug/cm^2; in the data set on pig buccal mucosa (Example 2, donor pH 5.0, 37° C., 3 h) it was 6.5 ± 4.1 ug/cm^2. The “Mean (±SD) Cumulative Amount Permeated through pig buccal mucosa” value is on record as 9.9 ± 5.7 ug/cm^2 in the data set with pig buccal mucosa (Example 2, donor pH 5.0, 37° C., 3.5 h); 14.2 ± 7.7 ug/cm^2 in the data set with pig buccal mucosa (Example 2, donor pH 5.0, 37° C., 4 h); 0.2 ± 0.3 ug/cm^2 in the data set with pig buccal mucosa (Example 3 (different tissue samples), donor pH 5.0, 37° C., 0.5 h); 0.2 ± 0.3 ug/cm^2 in the data set with pig buccal mucosa (Example 3 (different tissue samples), donor pH 5.0, 37° C., 1 h); 0.3 ± 0.3 ug/cm^2 in the data set with pig buccal mucosa (Example 3 (different tissue samples), donor pH 5.0, 37° C., 1.5 h); 0.8 ± 0.5 ug/cm^2 with pig buccal mucosa (Example 3 (different tissue samples), donor pH 5.0, 37° C., 2 h). Besides, the “Mean (±SD) Cumulative Amount Permeated through pig buccal mucosa” value is recorded as 1.9 ± 1.2 ug/cm^2 with pig buccal mucosa (Example 3 (different tissue samples), donor pH 5.0, 37° C., 2.5 h); 3.4 ± 2.0 ug/cm^2 in the data set on pig buccal mucosa (Example 3 (different tissue samples), donor pH 5.0, 37° C., 3 h); 5.6 ± 2.9 ug/cm^2 with pig buccal mucosa (Example 3 (different tissue samples), donor pH 5.0, 37° C., 3.5 h); 8.3 ± 3.9 ug/cm^2 in the data set with pig buccal mucosa (Example 3 (different tissue samples), donor pH 5.0, 37° C., 4 h); 0.2 ± 0.3 ug/cm^2 in the data set on pig buccal mucosa (Example 4 (different tissue samples), donor pH 5.0, 37° C., 0.5 h); 0.6 ± 0.3 ug/cm^2 in the data set with pig buccal mucosa (Example 4 (different tissue samples), donor pH 5.0, 37° C., 1 h). The “Mean (±SD) Cumulative Amount Permeated through pig buccal mucosa” value stood at 2.3 ± 1.7 ug/cm^2 in the data set with pig buccal mucosa (Example 4 (different tissue samples), donor pH 5.0, 37° C., 1.5 h); 5.0 ± 3.8 ug/cm^2 in the data set with pig buccal mucosa (Example 4 (different tissue samples), donor pH 5.0, 37° C., 2 h); 9.5 ± 7.2 ug/cm^2 with pig buccal mucosa (Example 4 (different tissue samples), donor pH 5.0, 37° C., 2.5 h); 14.9 ± 10.7 ug/cm^2 in the data set on pig buccal mucosa (Example 4 (different tissue samples), donor pH 5.0, 37° C., 3 h); 20.6 ± 14.1 ug/cm^2 in the data set with pig buccal mucosa (Example 4 (different tissue samples), donor pH 5.0, 37° C., 3.5 h); 25.8 ± 16.7 ug/cm^2 in the data set with pig buccal mucosa (Example 4 (different tissue samples), donor pH 5.0, 37° C., 4 h). In addition, the “Mean (±SD) Cumulative Amount Permeated through pig buccal mucosa” value in the data set on pig buccal mucosa (Table 4, donor solution pH 6.5, 37° C., 0.5 h) is given as 0.0 ± 0.0 ug/cm^2; in the data set on pig buccal mucosa (Table 4, donor solution pH 6.5, 37° C., 1 h) it was 0.0 ± 0.0 ug/cm^2; with pig buccal mucosa (Table 4, donor solution pH 6.5, 37° C., 1.5 h) it was 0.1 ± 0.2 ug/cm^2; with pig buccal mucosa (Table 4, donor solution pH 6.5, 37° C., 2 h) it was 0.3 ± 0.6 ug/cm^2; with pig buccal mucosa (Table 4, donor solution pH 6.5, 37° C., 2.5 h) it was 0.8 ± 1.1 ug/cm^2; in the data set on pig buccal mucosa (Table 4, donor solution pH 6.5, 37° C., 3 h) it was 1.3 ± 1.8 ug/cm^2. The “Mean (±SD) Cumulative Amount Permeated through pig buccal mucosa” value turned out to be 2.1 ± 2.5 ug/cm^2 with pig buccal mucosa (Table 4, donor solution pH 6.5, 37° C., 3.5 h) and 3.0 ± 3.2 ug/cm^2 in the data set on pig buccal mucosa (Table 4, donor solution pH 6.5, 37° C., 4 h). For the same compound, the “solution concentration of drug estimated to be at saturation” value in data set [2] was 4.76 mg/mL.
